Assay results published in PubChem BioAssay (NCI).
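Cells were grown in 96-well plates and exposed to each compound for 48 hours at five concentrations; endpoints were interpolated linearly between bracketing concentrations, or set to the highest concentration if not reached. Here, GI50 denotes the concentration required for 50% inhibition of growth. The concentration for full growth arrest is given as TGI.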

Columns and labels:
Test in all cases: NCI tumour cell line growth inhibition, 48 h; in the data active = GI50 below about 0.43 µM; inactive = the rest
HCC-2998 colon = system: HCC-2998 colon
OVCAR-8 ovarian = system: OVCAR-8 ovarian
NCI-H460 lung = system: NCI-H460 lung
T-47D breast = system: T-47D breast
SF-268 CNS = system: SF-268 CNS
TK-10 renal = system: TK-10 renal
SNB-75 CNS = system: SNB-75 CNS
SW-620 colon = system: SW-620 colon
COLO 205 colon = system: COLO 205 colon
SK-OV-3 ovarian = system: SK-OV-3 ovarian
LOX IMVI melanoma = system: LOX IMVI melanoma
A498 renal = system: A498 renal
OVCAR-5 ovarian = system: OVCAR-5 ovarian
OVCAR-3 ovarian = system: OVCAR-3 ovarian
SF-295 CNS = system: SF-295 CNS
SK-MEL-28 melanoma = system: SK-MEL-28 melanoma
RPMI-8226 leukemia = system: RPMI-8226 leukemia
RXF 393 renal = system: RXF 393 renal
CCRF-CEM leukemia = system: CCRF-CEM leukemia
SF-539 CNS = system: SF-539 CNS
ACHN renal = system: ACHN renal
786-0 renal = system: 786-0 renal
U251 CNS = system: U251 CNS
MCF7 breast = system: MCF7 breast
HT29 colon = system: HT29 colon
A549 NSCLC = system: A549 NSCLC
NCI/ADR-RES ovarian = system: NCI/ADR-RES ovarian
MOLT-4 leukemia = system: MOLT-4 leukemia
EKVX NSCLC = system: EKVX NSCLC
SK-MEL-5 melanoma = system: SK-MEL-5 melanoma
MDA-MB-435 = system: MDA-MB-435
OVCAR-4 ovarian = system: OVCAR-4 ovarian
UO-31 renal = system: UO-31 renal
HOP-62 NSCLC = system: HOP-62 NSCLC
PC-3 prostate = system: PC-3 prostate
UACC-257 melanoma = system: UACC-257 melanoma
DU-145 prostate = system: DU-145 prostate
MALME-3M melanoma = system: MALME-3M melanoma
NCI-H23 lung = system: NCI-H23 lung
K-562 leukemia = system: K-562 leukemia
BT-549 breast = system: BT-549 breast
HOP-92 NSCLC = system: HOP-92 NSCLC
NCI-H322M lung = system: NCI-H322M lung
HS 578T breast = system: HS 578T breast
SK-MEL-2 melanoma = system: SK-MEL-2 melanoma
HCT-15 colon = system: HCT-15 colon
NCI-H522 lung = system: NCI-H522 lung
IGROV1 ovarian = system: IGROV1 ovarian
HCT-116 colon = system: HCT-116 colon
SR leukemia = system: SR leukemia
UACC-62 melanoma = system: UACC-62 melanoma
SNB-19 CNS = system: SNB-19 CNS
SN12C renal = system: SN12C renal
KM12 colon = system: KM12 colon
MDA-MB-231 breast = system: MDA-MB-231 breast
HL-60(TB) leukemia = system: HL-60(TB) leukemia
M14 melanoma = system: M14 melanoma
CAKI-1 renal = system: CAKI-1 renal
NCI-H226 lung = system: NCI-H226 lung

NC(Cc1ccccc1N(CCCl)CCCl)C(=O)O (stereo not drawn)
96.6 µM: TGI (DU-145 prostate)
> 100 µM: TGI (HCC-2998 colon) | TGI (OVCAR-8 ovarian) | TGI (NCI-H460 lung) | TGI (T-47D breast) | TGI (SF-268 CNS) | TGI (TK-10 renal) | TGI (SNB-75 CNS) | TGI (SW-620 colon) | TGI (COLO 205 colon) | TGI (SK-OV-3 ovarian) | TGI (LOX IMVI melanoma) | TGI (A498 renal) | TGI (OVCAR-5 ovarian) | TGI (SF-295 CNS) | TGI (SK-MEL-28 melanoma) | TGI (RXF 393 renal) | TGI (CCRF-CEM leukemia) | TGI (ACHN renal) | TGI (U251 CNS) | TGI (MCF7 breast) | TGI (HT29 colon) | TGI (A549 NSCLC) | TGI (NCI/ADR-RES ovarian) | TGI (EKVX NSCLC) | TGI (SK-MEL-5 melanoma) | TGI (MDA-MB-435) | TGI (OVCAR-4 ovarian) | TGI (UO-31 renal) | TGI (HOP-62 NSCLC) | TGI (PC-3 prostate) | TGI (UACC-257 melanoma) | TGI (MALME-3M melanoma) | TGI (NCI-H23 lung) | TGI (K-562 leukemia) | TGI (BT-549 breast) | TGI (HOP-92 NSCLC) | TGI (NCI-H322M lung) | TGI (HS 578T breast) | TGI (SK-MEL-2 melanoma) | TGI (HCT-15 colon) | TGI (NCI-H522 lung) | TGI (IGROV1 ovarian) | TGI (HCT-116 colon) | TGI (SR leukemia) | TGI (UACC-62 melanoma) | TGI (SNB-19 CNS) | TGI (SN12C renal) | TGI (KM12 colon) | TGI (MDA-MB-231 breast) | TGI (M14 melanoma) | TGI (CAKI-1 renal) | TGI (NCI-H226 lung)
68.9 µM: TGI (SF-539 CNS)
80 µM: TGI (MOLT-4 leukemia)
86.7 µM: TGI (RPMI-8226 leukemia)
inactive: GI50 (HCC-2998 colon) 32.4 µM | GI50 (OVCAR-8 ovarian) 47.7 µM | GI50 (NCI-H460 lung) 2.18 µM | GI50 (T-47D breast) 10.4 µM | GI50 (SF-268 CNS) 5.67 µM | GI50 (TK-10 renal) > 100 µM | GI50 (SNB-75 CNS) 9.49 µM | GI50 (SW-620 colon) 16.3 µM | GI50 (COLO 205 colon) 30.7 µM | GI50 (SK-OV-3 ovarian) 20.7 µM | GI50 (LOX IMVI melanoma) 10.2 µM | GI50 (A498 renal) 72.5 µM | GI50 (OVCAR-5 ovarian) 83.2 µM | GI50 (OVCAR-3 ovarian) 23.1 µM | GI50 (SF-295 CNS) 3.34 µM | GI50 (SK-MEL-28 melanoma) 38.8 µM | GI50 (RPMI-8226 leukemia) 30 µM | GI50 (RXF 393 renal) 38.6 µM | GI50 (CCRF-CEM leukemia) 1.35 µM | GI50 (SF-539 CNS) 4.82 µM | GI50 (ACHN renal) 4.77 µM | GI50 (786-0 renal) 12.3 µM | GI50 (U251 CNS) 12.6 µM | GI50 (MCF7 breast) 3.08 µM | GI50 (HT29 colon) 77.3 µM | GI50 (A549 NSCLC) 47.6 µM | GI50 (NCI/ADR-RES ovarian) 30.3 µM | GI50 (MOLT-4 leukemia) 3.38 µM | GI50 (EKVX NSCLC) 66.2 µM | GI50 (SK-MEL-5 melanoma) 61.1 µM | GI50 (MDA-MB-435) > 100 µM | GI50 (OVCAR-4 ovarian) > 100 µM | GI50 (UO-31 renal) 12.6 µM | GI50 (HOP-62 NSCLC) 48.9 µM | GI50 (PC-3 prostate) 86.9 µM | GI50 (UACC-257 melanoma) 68.7 µM | GI50 (DU-145 prostate) 7.03 µM | GI50 (MALME-3M melanoma) 31.7 µM | GI50 (NCI-H23 lung) 23.3 µM | GI50 (K-562 leukemia) 29.1 µM | GI50 (BT-549 breast) 31 µM | GI50 (HOP-92 NSCLC) 33.1 µM | GI50 (NCI-H322M lung) > 100 µM | GI50 (HS 578T breast) 78.4 µM | GI50 (SK-MEL-2 melanoma) 95.9 µM | GI50 (HCT-15 colon) 28.5 µM | GI50 (NCI-H522 lung) 18.7 µM | GI50 (IGROV1 ovarian) 17.9 µM | GI50 (HCT-116 colon) 30.8 µM | GI50 (SR leukemia) 4.65 µM | GI50 (UACC-62 melanoma) 6.2 µM | GI50 (SNB-19 CNS) 15.3 µM | GI50 (SN12C renal) 5.8 µM | GI50 (KM12 colon) 74.7 µM | GI50 (MDA-MB-231 breast) > 100 µM | GI50 (HL-60(TB) leukemia) 1.67 µM | GI50 (M14 melanoma) 16.1 µM | GI50 (CAKI-1 renal) 5.21 µM | GI50 (NCI-H226 lung) > 100 µM
58.4 µM: TGI (786-0 renal)
11.5 µM: TGI (HL-60(TB) leukemia)
83.5 µM: TGI (OVCAR-3 ovarian)
